How the values were obtained:
[1] = human urine, occupational exposure to non-ferrous metal smelting; 77 of 100 cases with total arsenic exceeding warning line 0.032 mg/L
[2] = cited from earlier work

Arsenic betaine
arithmetic mean value of concentration in urine [1]: 3.76 ± 10.4 µg/L | concentration range in urine [1]: 0 to 82.9 ng/mL | median concentration in urine [1]: 0.817 µg/L

C[As](=O)(O)O
pka [2]: 4.6

Source: patent US20250110108A1 (priority 2022, published 2025)
